From US8173689B2 (Novartis AG, priority 2006, dated 2012)

Chains of the proteins cited; added tags and fusions are not shown. Lines headed by an entry give the natural chain unless they say otherwise; changes in a name come on top. Residues count along the entry.
UniProt P10721, 589-937 limits assumed: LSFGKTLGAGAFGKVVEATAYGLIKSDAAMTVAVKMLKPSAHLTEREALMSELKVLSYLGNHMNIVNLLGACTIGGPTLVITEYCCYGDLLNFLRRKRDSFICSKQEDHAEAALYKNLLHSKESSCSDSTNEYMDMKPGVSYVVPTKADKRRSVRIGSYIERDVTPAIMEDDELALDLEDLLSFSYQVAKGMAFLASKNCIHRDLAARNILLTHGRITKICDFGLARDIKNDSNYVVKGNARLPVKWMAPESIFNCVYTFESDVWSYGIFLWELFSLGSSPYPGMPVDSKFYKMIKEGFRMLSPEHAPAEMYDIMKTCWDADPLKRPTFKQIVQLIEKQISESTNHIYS
UniProt P09619: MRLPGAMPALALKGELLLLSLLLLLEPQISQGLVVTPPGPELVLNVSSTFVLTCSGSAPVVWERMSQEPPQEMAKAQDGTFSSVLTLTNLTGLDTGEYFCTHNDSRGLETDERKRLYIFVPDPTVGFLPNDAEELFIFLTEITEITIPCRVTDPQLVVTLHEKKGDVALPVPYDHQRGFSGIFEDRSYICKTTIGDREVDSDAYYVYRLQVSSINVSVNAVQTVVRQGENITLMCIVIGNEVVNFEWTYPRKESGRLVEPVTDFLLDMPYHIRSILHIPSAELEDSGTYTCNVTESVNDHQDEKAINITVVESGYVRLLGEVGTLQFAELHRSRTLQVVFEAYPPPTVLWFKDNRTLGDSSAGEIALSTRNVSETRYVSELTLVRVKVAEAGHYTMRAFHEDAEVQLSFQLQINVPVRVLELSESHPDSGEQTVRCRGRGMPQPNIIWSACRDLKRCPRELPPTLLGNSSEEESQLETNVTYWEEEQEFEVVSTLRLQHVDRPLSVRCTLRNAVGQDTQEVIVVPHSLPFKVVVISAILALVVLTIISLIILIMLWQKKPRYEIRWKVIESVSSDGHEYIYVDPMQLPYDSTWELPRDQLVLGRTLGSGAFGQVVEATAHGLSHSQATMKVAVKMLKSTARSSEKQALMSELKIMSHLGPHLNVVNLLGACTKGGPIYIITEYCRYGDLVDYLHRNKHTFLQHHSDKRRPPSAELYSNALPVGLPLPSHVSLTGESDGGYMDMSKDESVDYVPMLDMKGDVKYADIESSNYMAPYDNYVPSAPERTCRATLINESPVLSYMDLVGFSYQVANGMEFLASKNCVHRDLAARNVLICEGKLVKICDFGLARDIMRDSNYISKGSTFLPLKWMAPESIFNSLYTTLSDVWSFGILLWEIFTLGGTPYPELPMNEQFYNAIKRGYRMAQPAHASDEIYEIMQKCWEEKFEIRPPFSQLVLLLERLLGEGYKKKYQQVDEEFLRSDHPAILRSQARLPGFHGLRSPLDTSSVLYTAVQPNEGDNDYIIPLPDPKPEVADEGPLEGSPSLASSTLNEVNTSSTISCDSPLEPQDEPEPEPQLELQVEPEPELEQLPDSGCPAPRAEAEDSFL

Tests used:
Details in all cases: tested at about 1 μM; compounds of Table 3
[1] = target: T1, cytoplasmic domain of the human CSF-1R (Homo sapiens, UniProt P07333); test: In vitro kinase assay for colony stimulating factor-1 receptor (AlphaScreen); assay type: biochemical
T1 construct: Recombinant protein corresponding to the cytoplasmic domain of the human CSF-1R; purchased Invitrogen Corporation, Carlsbad, Calif; PV3249
T1 sequence (P07333 539-972 limits assumed): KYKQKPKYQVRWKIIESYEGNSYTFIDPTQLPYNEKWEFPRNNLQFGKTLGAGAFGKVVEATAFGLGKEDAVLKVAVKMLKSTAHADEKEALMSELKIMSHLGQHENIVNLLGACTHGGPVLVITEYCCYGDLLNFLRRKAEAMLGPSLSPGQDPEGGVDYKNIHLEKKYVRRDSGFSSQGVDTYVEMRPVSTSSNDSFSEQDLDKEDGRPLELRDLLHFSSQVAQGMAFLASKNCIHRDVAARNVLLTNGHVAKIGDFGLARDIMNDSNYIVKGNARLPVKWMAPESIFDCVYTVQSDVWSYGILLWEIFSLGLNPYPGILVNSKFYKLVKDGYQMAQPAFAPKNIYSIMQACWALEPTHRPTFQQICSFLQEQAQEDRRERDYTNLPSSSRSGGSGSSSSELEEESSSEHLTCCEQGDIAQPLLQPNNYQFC
Description: The kinase activity of various protein tyrosine kinases can be measured by providing ATP and a suitable peptide or protein tyrosine-containing substrate, and assaying the transfer of phosphate moiety to the tyrosine residue. Recombinant protein corresponding to the cytoplasmic domain of the human CSF-1R was purchased from Invitrogen Corporation, Carlsbad, Calif. U.S.A. (#PV3249). For each assay, test compounds were serially diluted, starting at 25 μM with 3 fold dilutions, in DMSO in 384 well plates then mixed with an appropriate kinase reaction buffer consisting of 50 mM Hepes, 5 mM MgCl2, 10 mM MnCl2, 0.1% BSA, pH 7.5, 1.0 mM dithiothreitol, 0.01% Tween 80 plus 1 μM ATP. […] Added to the stopped reaction mix was 30 μL of PT66 Alphascreen beads (Perkin Elmer, Boston, Mass., U.S.A.). The reaction was incubated overnight and read on the Envision (Perkin Elmer). Phosphorylated peptide product was measured with the AlphaScreen system (Perkin Elmer) using acceptor beads coated with anti-phosphotyrosine antibody PT66 and donor beads coated with streptavidin that emit a fluorescent signal at the 520-620 nm emission wave length if in close proximity.
CSF-1R kinase was added at final concentration of 4 nM.

[2] = target: T2, kinase domain of cKIT (Homo sapiens, UniProt P10721); test: Inhibition of cKIT kinase signaling in an in vitro biochemical assay (alphascreen)
T2 construct: The kinase domain of cKIT was assayed in 50 mM Hepes; purchased Upstate 14-559
Description: (§1) The IC50 values for the inhibition of RTKs were determined in the alphascreen format measuring the inhibition by compound of phosphate transfer to a substrate by the respective enzyme. Briefly, the respective RTK domain purchased as human recombinant protein (cKIT Upstate #14-559, PDGFRb Invitrogen #P3082) were incubated with serial dilutions of compound in the presence of substrate and ATP concentrations within 3 times the Km of the enzyme.
(§2) Alphascreen PY20 beads were added to the stopped cKIT reactions and PY20 Ab/Protein A Alphascreen beads were added to the PDGFRβ stopped reactions. Both reactions were incubated overnight and read on the Alphascreen reader.

[3] = target: T3, kinase domain of PDGFRβ (Homo sapiens, UniProt P09619); test: Inhibition of PDGFRb kinase signaling in an in vitro biochemical assay (alphascreen)
T3 construct: The kinase domain of PDGFRβ was assayed in 50 mM Hepes; purchased Invitrogen P3082
Description: as §1, §2

[4] = target: T4, full-length human CSF-1R receptor (Homo sapiens, UniProt P07333); test: In vitro inhibition of CSF-1R receptor tyrosine phosphorylation in transfected HEK293H cells stimulated with MCSF; assay type: cell-based
T4 construct: transfected with the full-length human CSF-1R receptor cloned in house; expressed in transfected cells; host or cells: HEK293H (Invitrogen Cat. #11631017)
Description: The lysate was then transferred to total CSF-1R antibody coated 96-well plates that had already been blocked with 3% Blocker A from Mesoscale discovery (MSD) for 2 hours and washed afterwards. Lysates were incubated overnight at 4° C. and the plates were then washed 4× with MSD Tris Wash Buffer. […] The plates were read on the Sector 6000 instrument (MSD). Raw data was imported in Abase and EC50s calculated with XL-fit data analysis software.

[5] = test system: MNFS60 (murine AML cells); test: Cell viability assay in MCSF dependent MNFS60 cells (Cell Titer Glo); assay type: cell-based
Description: Cell viability was assessed by Cell Titer Glo, Promega. […] Test compounds were serially diluted (3 fold) in DMSO to 500× the final concentration. […] Final concentration of MCSF is 10 ng/ml. Cells were incubated for 72 hrs at 37° C., 5% CO2. After the incubation 100 μl Cell Titer Glo is added to each well to determine viable cells. The assay was performed according to the manufacturer's instruction (Promega Corporation, Madison, Wis. USA). Each experimental condition was performed in triplicate. Raw data was imported in Abase and EC50s calculated with XL-fit data analysis software.

- CSF-1R percent inhibition [1]: 100%
- cKit percent inhibition [2]: 18%
- PDGFRβ percent inhibition [3]: 2%
- pCSF1R percent inhibition [4]: 66%
Substance: 4-[2-(2,5-Difluoro- benzylamino)-benzooxazol- 6-yloxy]-pyridine-2- carboxylic acid methylamide [Compound 33]
- M-NFS-60 CP percent inhibition [5]: 54%
